# Experimental data from PubChem BioAssay AID463104 (Sanford-Burnham Center for Chemical Genomics, 2010).
# The entries are a selection whose mix differs from that of the whole data set. The source made the active and inactive calls.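 The calls were made as follows: active = versus positive control, 20 µM dose yields 30% or more activation; inactive = the rest.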
# Test: IRE1-XBP1 pathway stimulators – cell-based, CHO-XBP1 luciferase reporter, luminescence, uHTS, primary screen (AID 463104);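 also: 100% = tunicamycin at 10 µg/mL and 0% = DMSO only wells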
# Conditions: IRE1-XBP1 UPR activation, at 20 µM, stronger effect = higher value, percent of tunicamycin response, DMSO as zero
# Procedure, shortened: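 Material – CHO cell line with stable XBP1 luciferase reporter · Buffer or medium – F12 plus 10% FBS · Compound – single point, 20 µM final compound, 1% DMSO · Schedule – 16-18 h cell attachment at 37 °C, then 6 h compound exposure · Signal – Steady-Glo luminescence read · Benchmarks – high control tunicamycin 10 µg/mL final, low control DMSO vehicle only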
row,SMILES,activation
1,CCOC(=O)Nc1ccc([As](=O)(O)O)c(O)c1,inactive: -0.46%
2,CCCCOc1ccc(C(=O)NCC2(N3CCCCC3)CCCCC2)cc1OC,inactive: -2.56%
3,Cc1cc(SC(NC(=O)c2ccccc2)C(Cl)(Cl)Cl)nc(C(C)C)n1 (stereo unspecified),inactive: -1.45%
4,CCOC(=O)Nc1cccc([As](=O)(O)O)c1,inactive: 0.1%
5,O=P(Nc1ccccn1)(c1cccc2ccccc12)c1cccc2ccccc12,inactive: -3.82%
6,Cc1cc(SC(NC=O)C(Cl)(Cl)Cl)ncn1 (stereo unspecified),inactive: 1%
7,COP1(=S)c2c(C)nn(CCC#N)c2N=C(c2ccc(F)cc2)N1C (stereo unspecified),inactive: -3.04%
8,O=C(COc1ccccc1)OC1CN2CCC1CC2 (stereo unspecified),inactive: 0.81%
9,O=C(Nc1ccncc1[N+](=O)[O-])c1ccc([N+](=O)[O-])cc1[N+](=O)[O-],inactive: -4.79%
10,O=C(OC1CN2CCC1CC2)c1cccc([N+](=O)[O-])c1 (stereo unspecified),inactive: -0.21%
11,CCOC(=O)c1ccc(NC(=O)C(C)(CCl)SC)cc1 (stereo unspecified),inactive: 2.45%
12,CCC(C)N(CC(C)C)C(=S)SC(NC(C)=O)C(Cl)(Cl)Cl (stereo unspecified),inactive: -0.36%
13,Cc1c2c(nc3ccccc13)SC(C(Cl)Cl)C2 (stereo unspecified),inactive: 3.09%
14,O=C(OC1CN2CCC1CC2)C12CC3CC(CC(C3)C1)C2 (stereo unspecified),inactive: -2.07%
15,Cc1cc(=O)[nH]c(N[N+](=O)[O-])n1,inactive: 1.77%
16,COc1ccc2nc(NP(=O)(c3ccccc3)c3ccccc3)sc2c1,inactive: -3.23%
17,COc1cc(I)ccc1[As](=O)(O)O,inactive: 1.15%
18,COc1ccc(N/C(=N/P(=O)(N2CCOCC2)N2CCOCC2)N2CCOCC2)cc1,inactive: -2.94%
19,C[As](=O)(O)c1cccc(C(=O)O)c1,inactive: -2.69%
20,O=[As](O)(c1ccc(O)cc1)c1ccccc1O,inactive: 0.19%
21,COc1cc(C(=O)NCC2(N3CCOCC3)CCCCC2)ccc1OCC(C)C,inactive: 1.45%
22,Cc1ccc(OP(=O)(Nc2ccc([N+](=O)[O-])cn2)Oc2ccc(C)cc2)cc1,inactive: -2.21%
23,Cc1ccc2nc3c(c(C)c2c1)CC(C(Cl)Cl)S3 (stereo unspecified),inactive: 7.87%
24,ClCCSc1nnc(-c2cccnc2)o1,inactive: -1.52%
25,CC(C)c1ccc(OP(=O)(Nc2ccccn2)Oc2ccccc2F)cc1 (stereo unspecified),inactive: 5.75%
26,CCN(CC)C(=S)SC(NC=O)C(Cl)(Cl)Cl (stereo unspecified),inactive: -1.17%

row,SMILES,activation
1,O=C(OC1CN2CCC1CC2)c1cccc2[nH]cnc12 (stereo unspecified),inactive: -4.74%
2,CC(C)NC(=O)NP(=O)(Oc1ccccc1)Oc1ccccc1,inactive: 4.01%
3,O=[N+]([O-])c1cc([N+](=O)[O-])c(-c2ccn[nH]2)s1,inactive: -1.02%
4,CCOP1(=S)c2c(C)nn(CCC#N)c2N=C(c2ccccc2F)N1C (stereo unspecified),inactive: -3.04%
5,O=P(Nc1nccs1)(c1ccccc1)c1nc2ccccc2s1 (stereo unspecified),inactive: 3.21%
6,O=P(Nc1nccs1)(Oc1ccccc1)Oc1ccccc1,inactive: 3.1%
7,CS(=O)(=O)c1cc([N+](=O)[O-])c2no[n+]([O-])c2c1,inactive: -0.26%
8,Nc1ccccc1[As](=O)(O)c1ccccc1,inactive: -1.86%
9,O=C(O)COc1ccc([As](=O)(O)O)cc1[N+](=O)[O-],inactive: -2.23%
10,NC(=O)Nc1ccc([As](=O)(O)O)cc1,inactive: 0.4%
11,N#CCCN(C(=O)COC(=O)C(O)(c1ccccc1)c1ccccc1)c1ccc(F)cc1,inactive: 1.57%
12,CCOP1(=S)c2c(C)nn(CCC#N)c2N=C(c2ccc(F)cc2)N1C (stereo unspecified),inactive: 0.17%
13,CN(C(=O)Cc1ccccc1)[C@@H]1CC[C@]2(CCCO2)C[C@H]1N1CCCC1,inactive: -3.05%
14,CN(C)C(=O)c1cc([N+](=O)[O-])cc2c1-c1c(cc([N+](=O)[O-])cc1[N+](=O)[O-])C2=O,inactive: -11.2%
15,O=[N+]([O-])c1ccc2c(c1)nnn2O,inactive: -2.37%
16,CN(C(=O)Cc1ccc(Cl)c(Cl)c1)[C@H]1CC[C@@]2(CCCO2)C[C@@H]1N1CCCC1,inactive: -7.78%
17,O=C(OC1CN2CCC1CC2)c1ccc(Cl)cc1 (stereo unspecified),inactive: 2.25%
18,COc1cc(C(=O)NCC2(N3CCOCC3)CCCCC2)cc(Cl)c1OC(C)C,inactive: -2.19%
19,O=[As](O)(O)c1cccnc1,inactive: 0.55%
20,CS(=O)(=O)c1ccc(Cl)c(NC(=O)COC(=O)C(O)(c2ccccc2)c2ccccc2)c1,inactive: -4.56%
21,O=[As](O)(c1cccc(O)c1)c1cccc(O)c1,inactive: -0.77%
22,Cc1cccc(OCC(=O)OC2CN3CCC2CC3)c1 (stereo unspecified),inactive: -4.71%
23,Cc1ccc(NCCc2c([N+](=O)[O-])cc([N+](=O)[O-])cc2[N+](=O)[O-])cc1,inactive: -2.48%
24,CCCOP(=S)(Nc1nc(N)cc(=O)[nH]1)OCCC,inactive: -2%
25,COc1cc(C2NCCC3(OCCO3)C2(C)C)cc(OC)c1OC (stereo unspecified),inactive: -1.35%
26,CCOP(=O)(Nc1cccc2ccccc12)OCC,inactive: 0.84%

row,SMILES,activation
1,O=P1(Nc2ccccn2)COc2ccccc2OC1,inactive: -0.8%
2,CCC1=CC2Cc3nc4ccc(Cl)cc4c(N)c3C(C1)C2 (stereo unspecified),inactive: -3.86%
3,CCOP(=O)(NC(=NC(C)c1ccccc1)NC(C)c1ccccc1)OCC (stereo unspecified),inactive: -2.58%
4,CN(CCCl)Cc1cc(Cl)c(NC2=NCCN2)c(Cl)c1,inactive: -7.3%
5,CCOP(=O)(Nc1ccc(C)cn1)OCC,inactive: -2.85%
6,Clc1n[nH]nc1-c1nn[nH][15n]1,inactive: 2.67%
7,CC(C)(C)C(=O)NC(Sc1ncccn1)C(Cl)(Cl)Cl (stereo unspecified),inactive: 1.59%
8,COc1ccccc1CNC(=O)COC(=O)C(O)(c1ccccc1)c1ccccc1,inactive: -1.35%
9,CC(C)/C=N\N=C(\N)N[N+](=O)[O-],inactive: 1.28%
10,CN(C(=O)Cc1ccc(Cl)c(Cl)c1)[C@@H]1CCCC[C@H]1N1CCCC1,inactive: -8.14%
11,O=[As](O)(c1ccccc1Br)c1ccccc1Br,inactive: -1.25%
12,CC1(CBr)Cn2c(nc3ccccc3c2=O)S1 (stereo unspecified),inactive: -0.84%
13,Cc1nn(-c2ccccc2)c2c1P(=O)(N1CCOCC1)N(C)C(c1ccccc1)=N2 (stereo unspecified),inactive: -0.34%
14,CC1CCC(C(C)C)C(OP(=O)(Nc2ccccn2)c2ccccc2)C1 (stereo unspecified),inactive: -0.49%
15,Cc1ccc(C(=O)OC2CN3CCC2CC3)cc1 (stereo unspecified),inactive: 0.12%
16,CN(C)C1(CNC(=O)c2ccc(S(C)(=O)=O)cc2)CCCCC1,inactive: -2.46%
17,O=C(/C=C/c1ccccc1)OC1CN2CCC1CC2 (stereo unspecified),inactive: -3.13%
18,O=P1(Nc2ncccn2)COc2ccccc2OC1,inactive: -1.43%
19,Nc1cccc([As](=O)(O)c2ccccc2)c1,inactive: -1.86%
20,O=P1(Nc2ccc(Br)cn2)COc2ccccc2OC1,inactive: -0.24%
21,NS(=O)(=O)c1cccc(NC(=O)COC(=O)C(O)(c2ccccc2)c2ccccc2)c1,inactive: -1.02%
22,Cc1ccc(OCC(=O)OC2CN3CCC2CC3)cc1 (stereo unspecified),inactive: -2.77%
23,O=[As](O)(c1cccs1)c1cccs1,inactive: 0.75%
24,O=P(Nc1ccccn1)(c1ccc(Br)cc1)c1ccc(Br)cc1,inactive: -3.48%
25,CN(C)C1(CNC(=O)c2ccc(Cl)c(S(N)(=O)=O)c2)CCCCC1,inactive: 3.9%
26,O=P(Nc1nc2ccccc2s1)(c1ccccc1)c1ccccc1,inactive: -1.18%

row,SMILES,activation
1,C[C@H]1OP(=O)(Oc2ccccc2)[C@H](O)[C@H](O)[C@H]1N=[N+]=[N-] (stereo partly specified),inactive: 2.51%
2,O=[As](O)(c1ccccc1)c1ccc(O)cc1,inactive: -1.18%
3,O=[N+]([O-])c1ncn(CCn2cnc([N+](=O)[O-])n2)n1,inactive: -2.73%
4,O=C(OC1CN2CCC1CC2)c1cccc(Cl)c1 (stereo unspecified),inactive: -0.74%
5,Nc1ccc([As](=O)(O)c2ccc([N+](=O)[O-])cc2)cc1,inactive: -0.69%
6,C(Cc1nn[nH]n1)Cc1nn[nH]n1,inactive: -1.58%
7,CC(C)C(=O)NC(Sc1ccccc1)C(Cl)(Cl)Cl (stereo unspecified),inactive: -1.1%
8,O=P(Nc1nccs1)(c1ccccc1)c1ccccc1,inactive: 0.21%
9,c1nnnn1CCn1cnnn1,inactive: -0.24%
10,O=P1(Nc2nc3ccc(Cl)cc3s2)COc2ccccc2O1 (stereo unspecified),inactive: -0.58%
11,CCOc1ccc(C2=NCC(CBr)S2)cc1 (stereo unspecified),inactive: -0.49%
12,CC(C)(C)C(=O)NC(Sc1ccccc1)C(Cl)(Cl)Cl (stereo unspecified),inactive: -3.01%
13,Cc1ccccc1CN(C)C(=O)COC(=O)C(O)(c1ccccc1)c1ccccc1,inactive: -0.86%
14,C[C@@H]1C=CCP(=O)(Oc2ccccc2)O1 (stereo partly specified),inactive: -1.26%
15,C[C@H]1OP(=O)(Oc2ccccc2)C[C@@H]2O[C@@H]21 (stereo partly specified),inactive: 2.06%
16,CC(=O)c1ccc(N2CC2c2ccncc2)cc1 (stereo unspecified),inactive: -2.33%
17,CC(=O)Nc1ccc([As](=O)(O)O)c(O)c1,inactive: 1.52%
18,CC(=O)Nc1ccc(Oc2c([N+](=O)[O-])cc([N+](=O)[O-])cc2[N+](=O)[O-])cc1,inactive: -3.2%
19,c1ccc(-c2nn[nH]n2)c(-c2nn[nH]n2)c1,inactive: -3.34%
20,Cc1ccc(NP(=O)(Oc2cccc(C)c2)Oc2cccc(C)c2)nc1,inactive: -2.03%
21,CCOC(=O)NC(Sc1ccccc1)C(Cl)(Cl)Cl (stereo unspecified),inactive: 10.4%
22,CCNC(=S)/N=C(\N)N[N+](=O)[O-],inactive: -3.71%
23,O=C(NC1CCS(=O)(=O)C1)NP(=S)(Oc1ccccc1)Oc1ccccc1 (stereo unspecified),inactive: 1.12%
